How the values were obtained:
[1] = target: T1, 5-HT2B (Homo sapiens, UniProt P41595); assay: Receptor affinity assay, radioligand competition binding
T1 construct: expressed in transfected cells; host or cells: CHO-K1 or HEK293
Method: Receptor Affinity Assays: 5-HT1A, 5-HT2(A,B,C) receptor affinities were determined by radioligand competition binding. Membranes from CHO-K1 or HEK293 cells expressing serotonergic receptors were collected and incubated in assay buffer with Kd concentrations of radioligands and tests compounds that compete for receptor binding sites. After equilibration, the reaction was terminated by collecting ligand-receptor-membrane complexes (Microbeta, PerkinElmer), and radioactivity was measured by a scintillation counter (Microbeta2, PerkinElmer). Data were fit to non-linear curves, and Ki values were calculated per the Cheng-Prusoff equation.

By UniProt entry, the sequences of proteins in these tests, tags left out.
UniProt P41595, whole entry: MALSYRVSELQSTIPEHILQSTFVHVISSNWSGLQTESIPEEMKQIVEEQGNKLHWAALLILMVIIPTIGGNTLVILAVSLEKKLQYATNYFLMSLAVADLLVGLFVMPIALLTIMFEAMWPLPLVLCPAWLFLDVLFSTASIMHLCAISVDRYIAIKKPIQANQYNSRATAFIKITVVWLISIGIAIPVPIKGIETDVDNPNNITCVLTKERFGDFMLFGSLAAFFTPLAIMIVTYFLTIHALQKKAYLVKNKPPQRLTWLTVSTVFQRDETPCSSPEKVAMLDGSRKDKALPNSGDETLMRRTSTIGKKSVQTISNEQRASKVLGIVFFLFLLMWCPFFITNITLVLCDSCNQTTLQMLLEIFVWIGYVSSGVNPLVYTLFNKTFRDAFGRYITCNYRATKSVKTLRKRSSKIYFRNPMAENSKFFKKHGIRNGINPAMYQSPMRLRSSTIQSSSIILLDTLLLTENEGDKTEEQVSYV

[2] = target: T1, 5-HT2B; assay: Receptor function assay, Gq stimulation (IP1 production); assay type: cell-based
Method: Receptor Function Assays: 5-HT1A receptor-mediated Gi stimulation (reduction in cyclic adenosine monophosphate (cAMP) levels) and 5-HT2(A,B,C) receptor-mediated Gq stimulation (phosphoinositide hydrolysis leading to the production of inositol phosphate 1 (IP1))-canonical signaling pathways—were measured as previously described (Canal et al., 2013), for example, with a homogeneous time-resolved fluorescence (HTRF) capable microplate reader (e.g., Mithras LB 940, Berthold) using commercially-available kits employing Fluorescence Resonance Energy Transfer (FRET) technology (e.g., LANCE Ultra cAMP TR-FRET (PerkinElmer) and IP-One HTRF (Cisbio) kits). Briefly, CHO-K1 or HEK293 cells expressing serotonergic receptors were incubated with test compounds in stimulation buffer. After equilibration, the reaction was terminated with the donor and acceptor fluorescent conjugates in lysis buffer, and FRET was measured. Data were fit to non-linear curves to calculate potencies (e.g., EC50) and efficacies (e.g., EMAX), relative to positive controls (e.g., serotonin).

## [2H]C([2H])(Cc1c[nH]c2cccc(O)c12)N(C)C [PI-α,α-d2]
[1]
  Ki: 6 nM
[2]
  EC50: > 20000 nM
